Test [1] is filed under the species Rattus norvegicus. Description: Selectivity index, ratio of IC50 for Fischer-344 rat kidney ALR1 to IC50 for Fischer-344 rat lens ALR2. It counts as tissue-based. Particulars: Lens of camera-type eye. The procedure, abridged: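 Selectivity index calculated from the IC50 values of two spectrophotometric NADPH-consumption assays (340 nm). Rat kidney ALR1 was measured at 37 °C and rat lens ALR2 at 30 °C. Each IC50 was derived by least-squares fitting of triplicate five-concentration log(dose)–response data.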

For test [2], the target named is Aldo-keto reductase family 1 member A1 (Rattus norvegicus) (UniProt P51635). Description: Inhibition of Fischer-344 rat kidney ALR1 using D,L-glyceraldehyde as substrate at 10' -5 M by spectrophotometry.

Regarding `O=C(c1ccn(-c2cc(F)c(O)c(F)c2)c1)c1ccc(Br)cc1F`, the Ratio IC50 in test [1] was 14.1. In test [2], the inhibition (as a rule, the share of the control response that was lost under treatment) was 75.3%.

Source of the values: ChEMBL document CHEMBL2311444, “Synthesis of derivatives of the keto-pyrrolyl-difluorophenol scaffold: some structural aspects for aldose reductase inhibitory activity and selectivity” (Bioorg Med Chem, 2013).
